According to PubChem BioAssay (NCI):
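Interpolation was linear, between the two tested concentrations surrounding the appropriate level; five concentrations were tested over 48 hours in 96-well plates. GI50 = concentration required for 50% inhibition of growth. The concentration for full growth arrest is given as TGI.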

Legend:
Test in all cases: NCI anticancer screen, dose series, 48 h
SF-539 CNS = tested on: SF-539 CNS
SK-MEL-5 melanoma = tested on: SK-MEL-5 melanoma
IGROV1 ovarian = tested on: IGROV1 ovarian
K-562 leukemia = tested on: K-562 leukemia
T-47D breast = tested on: T-47D breast
COLO 205 colon = tested on: COLO 205 colon
BT-549 breast = tested on: BT-549 breast
PC-3 prostate = tested on: PC-3 prostate
A498 renal = tested on: A498 renal
HL-60(TB) leukemia = tested on: HL-60(TB) leukemia
HT29 colon = tested on: HT29 colon
SF-268 CNS = tested on: SF-268 CNS
NCI-H226 lung = tested on: NCI-H226 lung
M14 melanoma = tested on: M14 melanoma
OVCAR-3 ovarian = tested on: OVCAR-3 ovarian
OVCAR-8 ovarian = tested on: OVCAR-8 ovarian
U251 CNS = tested on: U251 CNS
MOLT-4 leukemia = tested on: MOLT-4 leukemia
UACC-257 melanoma = tested on: UACC-257 melanoma
NCI-H23 lung = tested on: NCI-H23 lung
OVCAR-4 ovarian = tested on: OVCAR-4 ovarian
HCT-15 colon = tested on: HCT-15 colon
NCI-H522 lung = tested on: NCI-H522 lung
SF-295 CNS = tested on: SF-295 CNS
SNB-19 CNS = tested on: SNB-19 CNS
HOP-92 NSCLC = tested on: HOP-92 NSCLC
SW-620 colon = tested on: SW-620 colon
SNB-75 CNS = tested on: SNB-75 CNS
SN12C renal = tested on: SN12C renal
NCI-H460 lung = tested on: NCI-H460 lung
RXF 393 renal = tested on: RXF 393 renal
CAKI-1 renal = tested on: CAKI-1 renal
A549 NSCLC = tested on: A549 NSCLC
ACHN renal = tested on: ACHN renal
MDA-N = tested on: MDA-N
UACC-62 melanoma = tested on: UACC-62 melanoma
UO-31 renal = tested on: UO-31 renal
KM12 colon = tested on: KM12 colon
HCC-2998 colon = tested on: HCC-2998 colon
RPMI-8226 leukemia = tested on: RPMI-8226 leukemia
DU-145 prostate = tested on: DU-145 prostate
SK-MEL-28 melanoma = tested on: SK-MEL-28 melanoma
MALME-3M melanoma = tested on: MALME-3M melanoma
MDA-MB-435 = tested on: MDA-MB-435
NCI/ADR-RES ovarian = tested on: NCI/ADR-RES ovarian
SR leukemia = tested on: SR leukemia
TK-10 renal = tested on: TK-10 renal
786-0 renal = tested on: 786-0 renal
MDA-MB-231 breast = tested on: MDA-MB-231 breast
CCRF-CEM leukemia = tested on: CCRF-CEM leukemia
SK-MEL-2 melanoma = tested on: SK-MEL-2 melanoma
HCT-116 colon = tested on: HCT-116 colon
OVCAR-5 ovarian = tested on: OVCAR-5 ovarian

`COP1OCC2CCC[C@@H]2O1` (stereo partly specified) showed a GI50 (SF-539 CNS) of over 100 µM, a TGI (SF-539 CNS) of over 100 µM and a GI50 (SK-MEL-5 melanoma) of over 100 µM. For the same molecule, the TGI (SK-MEL-5 melanoma) was over 100 µM, the GI50 (IGROV1 ovarian) was over 100 µM and the TGI (IGROV1 ovarian) was over 100 µM. For the same molecule, the GI50 (K-562 leukemia) was over 100 µM, the TGI (K-562 leukemia) was over 100 µM and the GI50 (T-47D breast) was over 100 µM. It also gave a TGI (T-47D breast) of over 100 µM, a GI50 (COLO 205 colon) of over 100 µM and a TGI (COLO 205 colon) of over 100 µM. It also gave a GI50 (BT-549 breast) of over 100 µM, a TGI (BT-549 breast) of over 100 µM and a GI50 (PC-3 prostate) of over 100 µM. It also gave a TGI (PC-3 prostate) of over 100 µM, a GI50 (A498 renal) of over 100 µM and a TGI (A498 renal) of over 100 µM. For the same molecule, the GI50 (HL-60(TB) leukemia) was over 100 µM, the TGI (HL-60(TB) leukemia) was over 100 µM and the GI50 (HT29 colon) was over 100 µM. It also gave a TGI (HT29 colon) of over 100 µM, a GI50 (SF-268 CNS) of over 100 µM and a TGI (SF-268 CNS) of over 100 µM. It also gave a GI50 (NCI-H226 lung) of over 100 µM, a TGI (NCI-H226 lung) of over 100 µM and a GI50 (M14 melanoma) of over 100 µM. The TGI (M14 melanoma) was over 100 µM, the GI50 (OVCAR-3 ovarian) was over 100 µM and the TGI (OVCAR-3 ovarian) was over 100 µM. The GI50 (OVCAR-8 ovarian) was over 100 µM, the TGI (OVCAR-8 ovarian) was over 100 µM and the GI50 (U251 CNS) was over 100 µM. For the same molecule, the TGI (U251 CNS) was over 100 µM, the GI50 (MOLT-4 leukemia) was over 100 µM and the TGI (MOLT-4 leukemia) was over 100 µM. The GI50 (UACC-257 melanoma) was over 100 µM, the TGI (UACC-257 melanoma) was over 100 µM and the GI50 (NCI-H23 lung) was over 100 µM. For the same molecule, the TGI (NCI-H23 lung) was over 100 µM, the GI50 (OVCAR-4 ovarian) was over 100 µM and the TGI (OVCAR-4 ovarian) was over 100 µM. The GI50 (HCT-15 colon) was over 100 µM, the TGI (HCT-15 colon) was over 100 µM and the GI50 (NCI-H522 lung) was over 100 µM. For the same molecule, the TGI (NCI-H522 lung) was over 100 µM, the GI50 (SF-295 CNS) was over 100 µM and the TGI (SF-295 CNS) was over 100 µM. For the same molecule, the GI50 (SNB-19 CNS) was over 100 µM, the TGI (SNB-19 CNS) was over 100 µM and the GI50 (HOP-92 NSCLC) was over 100 µM. For the same molecule, the TGI (HOP-92 NSCLC) was over 100 µM, the GI50 (SW-620 colon) was over 100 µM and the TGI (SW-620 colon) was over 100 µM. The GI50 (SNB-75 CNS) was over 100 µM, the TGI (SNB-75 CNS) was over 100 µM and the GI50 (SN12C renal) was over 100 µM. The TGI (SN12C renal) was over 100 µM, the GI50 (NCI-H460 lung) was over 100 µM and the TGI (NCI-H460 lung) was over 100 µM. For the same molecule, the GI50 (RXF 393 renal) was over 100 µM, the TGI (RXF 393 renal) was over 100 µM and the GI50 (CAKI-1 renal) was over 100 µM. It also gave a TGI (CAKI-1 renal) of over 100 µM, a GI50 (A549 NSCLC) of over 100 µM and a TGI (A549 NSCLC) of over 100 µM. The GI50 (ACHN renal) was over 100 µM, the TGI (ACHN renal) was over 100 µM and the GI50 (MDA-N) was over 100 µM. It also gave a TGI (MDA-N) of over 100 µM, a GI50 (UACC-62 melanoma) of over 100 µM and a TGI (UACC-62 melanoma) of over 100 µM. It also gave a GI50 (UO-31 renal) of over 100 µM, a TGI (UO-31 renal) of over 100 µM and a GI50 (KM12 colon) of over 100 µM. It also gave a TGI (KM12 colon) of over 100 µM, a GI50 (HCC-2998 colon) of over 100 µM and a TGI (HCC-2998 colon) of over 100 µM. The GI50 (RPMI-8226 leukemia) was over 100 µM, the TGI (RPMI-8226 leukemia) was over 100 µM and the GI50 (DU-145 prostate) was over 100 µM. It also gave a TGI (DU-145 prostate) of over 100 µM, a GI50 (SK-MEL-28 melanoma) of over 100 µM and a TGI (SK-MEL-28 melanoma) of over 100 µM. It also gave a GI50 (MALME-3M melanoma) of over 100 µM, a TGI (MALME-3M melanoma) of over 100 µM and a GI50 (MDA-MB-435) of over 100 µM. For the same molecule, the TGI (MDA-MB-435) was over 100 µM, the GI50 (NCI/ADR-RES ovarian) was over 100 µM and the TGI (NCI/ADR-RES ovarian) was over 100 µM. For the same molecule, the GI50 (SR leukemia) was over 100 µM, the TGI (SR leukemia) was over 100 µM and the GI50 (TK-10 renal) was over 100 µM. It also gave a TGI (TK-10 renal) of over 100 µM, a GI50 (786-0 renal) of over 100 µM and a TGI (786-0 renal) of over 100 µM. It also gave a GI50 (MDA-MB-231 breast) of over 100 µM, a TGI (MDA-MB-231 breast) of over 100 µM and a GI50 (CCRF-CEM leukemia) of over 100 µM. For the same molecule, the TGI (CCRF-CEM leukemia) was over 100 µM, the GI50 (SK-MEL-2 melanoma) was over 100 µM and the TGI (SK-MEL-2 melanoma) was over 100 µM. For the same molecule, the GI50 (HCT-116 colon) was over 100 µM, the TGI (HCT-116 colon) was over 100 µM and the GI50 (OVCAR-5 ovarian) was over 100 µM. The TGI (OVCAR-5 ovarian) was over 100 µM.
